Results from BindingDB's records for 8071934.

Protein sequences, listed by entry. Tags and fused reporters are not part of them.
UniProt P41143, whole entry, looked up: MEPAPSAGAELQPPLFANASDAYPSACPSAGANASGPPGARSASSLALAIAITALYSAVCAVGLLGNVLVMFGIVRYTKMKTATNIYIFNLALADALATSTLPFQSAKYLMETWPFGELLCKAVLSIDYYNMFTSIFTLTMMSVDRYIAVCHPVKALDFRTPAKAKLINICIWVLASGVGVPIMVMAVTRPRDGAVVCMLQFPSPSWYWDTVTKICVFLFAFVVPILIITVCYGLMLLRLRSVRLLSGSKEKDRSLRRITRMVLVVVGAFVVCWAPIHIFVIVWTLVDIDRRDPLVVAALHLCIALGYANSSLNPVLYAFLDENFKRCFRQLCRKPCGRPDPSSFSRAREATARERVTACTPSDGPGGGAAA

Target: Delta-type opioid receptor (Homo sapiens, UniProt P41143)
Assay: Tested for inhibitory concentration against [3H]DPDPE binding at sites of delta-opioid receptor in guinea pig brain membrane

Row | Compound | IC50 [µM]
1 | CN(C(=O)Cc1ccccc1)[C@H]1C[C@@]2(CCCO2)CC[C@@H]1N1CCCC1 | 5
2 | CN(C(=O)Cc1cc(Cl)c(Cl)cc1N=C=S)[C@H](CN1CCCC1)c1ccccc1 | 1.7
3 | CN(C(=O)Cc1cccc(N=C=S)c1)[C@H](CN1CCCC1)c1ccccc1 | 0.144
4 | CN(C(=O)Cc1ccc(N=C=S)cc1)[C@H](CN1CCCC1)c1ccccc1 | 0.15
5 | CN(C(=O)Cc1ccc(Cl)c(Cl)c1)[C@H](CN1CCCC1)c1ccccc1 | 0.6
6 | CN(C(=O)Cc1ccc(Cl)c(Cl)c1)[C@H](CN1CCCC1)c1ccc(N=C=S)cc1 | > 1
7 | CN(C(=O)Cc1ccccc1N=C=S)[C@H](CN1CCCC1)c1ccccc1 | 1.06
8 | CN(C(=O)Cc1ccccc1)[C@H](CN1CCCC1)c1ccccc1 | > 1
